Literature values, collected in patent US20090203708A1, “NOVEL SUBSTITUTED-1-H-QUINAZOLINE-2,4-DIONE DERIVATIVES, PREPARATION METHOD THEREOF AND PHARMACEUTICAL COMPOSITION CONTAINING THE SAME” (Korea Research Institute of Chemical Technology, priority 2006, published 2009).

Amino acid sequences for entries named in this document (tags omitted).
UniProt P50406, whole entry: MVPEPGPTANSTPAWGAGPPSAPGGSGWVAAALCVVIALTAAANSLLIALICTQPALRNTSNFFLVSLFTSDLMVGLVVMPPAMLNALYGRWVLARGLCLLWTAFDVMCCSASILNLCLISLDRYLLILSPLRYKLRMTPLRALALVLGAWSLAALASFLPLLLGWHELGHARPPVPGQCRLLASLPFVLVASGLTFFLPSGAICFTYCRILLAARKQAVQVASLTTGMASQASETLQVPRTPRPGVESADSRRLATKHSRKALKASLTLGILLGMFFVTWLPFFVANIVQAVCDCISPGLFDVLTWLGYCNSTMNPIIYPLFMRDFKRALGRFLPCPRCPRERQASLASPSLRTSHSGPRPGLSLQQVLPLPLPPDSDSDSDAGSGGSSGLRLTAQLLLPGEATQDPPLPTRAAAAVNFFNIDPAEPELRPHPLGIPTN

Assays:
5-HT6 receptors = 5-HT6 receptors (Homo sapiens, UniProt P50406); conditions: read-out: Ki for 5-HT6 receptors; literature; cited from earlier work
[1] = literature; cited from earlier work
[2] = tested on: other 5-HT receptors / other receptor/binding sites; conditions: literature; cited from earlier work

For `COc1ccc(NS(=O)(=O)c2ccc(Br)cc2)cc1N1CCN(C)CC1`, which Ki (5-HT6 receptors) is on record?
Its Ki is 5 nM.

What about the “bioavailability (in words)” value [1] of the same molecule?
The value was “low bioavailability”.

And the brain penetration [1]?
The brain penetration was 25%.

What about the “clearance (in words)” value [1] of the same molecule?
The value was “rapid blood clearance”.

What about the “affinity for 50 other receptor/binding sites” value [2] of the same molecule?
The value was “no measurable affinity”.

And the “selectivity over 10 other 5-HT receptors” value [2]?
The value was ≥ 50 fold.
